The record followed here is US20250034138A1, “Compounds and Compositions as C-Kit Kinase Inhibitors” (Enanta Pharmaceuticals, Inc., priority 2023, published 2025).

Sequences of proteins named here, by UniProt entry; tags and fusion partners are left off. Residues count along the entry.
UniProt P10721, 26-976 limits assumed: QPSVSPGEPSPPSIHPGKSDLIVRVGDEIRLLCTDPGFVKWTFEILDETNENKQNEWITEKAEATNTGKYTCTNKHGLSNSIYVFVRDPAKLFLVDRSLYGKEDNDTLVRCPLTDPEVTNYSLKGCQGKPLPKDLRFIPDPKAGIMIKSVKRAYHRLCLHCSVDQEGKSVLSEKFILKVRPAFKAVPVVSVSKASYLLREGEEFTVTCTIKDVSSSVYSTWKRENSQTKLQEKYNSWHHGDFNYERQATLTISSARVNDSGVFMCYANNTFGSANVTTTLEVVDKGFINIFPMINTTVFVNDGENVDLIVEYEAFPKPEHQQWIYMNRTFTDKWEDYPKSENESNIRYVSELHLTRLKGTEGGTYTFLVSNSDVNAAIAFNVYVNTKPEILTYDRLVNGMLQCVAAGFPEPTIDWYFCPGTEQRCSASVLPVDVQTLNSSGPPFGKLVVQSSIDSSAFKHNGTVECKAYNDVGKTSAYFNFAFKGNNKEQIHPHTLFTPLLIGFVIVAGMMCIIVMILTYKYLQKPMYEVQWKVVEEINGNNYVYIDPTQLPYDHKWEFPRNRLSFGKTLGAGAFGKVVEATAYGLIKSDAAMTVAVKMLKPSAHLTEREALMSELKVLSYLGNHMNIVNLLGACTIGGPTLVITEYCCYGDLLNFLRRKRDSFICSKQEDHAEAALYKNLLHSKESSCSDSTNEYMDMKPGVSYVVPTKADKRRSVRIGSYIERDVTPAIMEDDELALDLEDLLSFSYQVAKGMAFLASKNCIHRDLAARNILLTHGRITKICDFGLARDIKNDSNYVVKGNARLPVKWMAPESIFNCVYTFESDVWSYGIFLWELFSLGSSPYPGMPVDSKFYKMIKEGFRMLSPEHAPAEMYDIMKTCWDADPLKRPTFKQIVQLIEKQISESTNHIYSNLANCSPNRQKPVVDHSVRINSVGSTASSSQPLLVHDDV

In assay [1] the test system is M-07e cells which endogenously express human c-KIT. The experiment in a line: M-07e Cellular Assay (SCF-mediated cell proliferation, CellTiter Glo). In kind it is cell-based. The settings on record: read-out: M-07e EC50, SCF (EC90)-stimulated M-07e cell proliferation, 72 hours. The protocol: 2. M-07e Cellular Assay M-07e cells (Creative Bioarray, CSC-CO249) which endogenously express human c-KIT were used to evaluate the effect of compounds on stem cell factor (SCF)-mediated cell proliferation. M-07e cells were cultured in growth media (RPMI+10% FBS+1% penicillin/streptomycin+10 ng/mL GM-CSF) at 5E5-1.5E6 cells/mL, replenishing media every 3-4 days. 1.5E4 cells were seeded per well in 384 well tissue culture treated plates in 20 μL assay media (RPMI+10% FBS+1% penicillin/streptomycin) without growth factor stimulation and incubated at 37° C. in a CO2 humidity-controlled incubator. Twenty-four hours later, three-fold serially diluted test compounds in media containing SCF (at the previously determined EC90) were added to the plated M-07e cells and incubated for an additional 72 hours. Cell viability was determined by adding 25 μL CellTiter Glo (Promega) to the cells and the luminescence was measured using a Perkin Elmer Envision plate reader. The EC50 was determined using GraphPad Prism. […] EC50 ranges are reported as follows: […]
For orientation: ATP-based viability assays read luminescence as a measure of living cells.

Assay [2] addresses Recombinant human c-KIT kinase (Homo sapiens, UniProt P10721). The experiment in a line: c-KIT Kinase Chemiluminescence Assay (ADP-Glo). The settings on record: read-out: c-Kit IC50; recombinant human c-KIT 30-40 nM, ATP 50 μM, polyEY substrate, ADP-Glo luminescence. The text has this:
Staurosporine (AM-2282) and Imatinib (STI571) were purchased from Selleck Chemicals LLC (Houston, TX). The c-KIT reference compound THB001 (EP-053504) was synthesized by Enanta Pharmaceuticals, Inc. (Watertown, MA). The c-KIT Kinase Enzyme System (V4498) and ADP-Glo™ Kinase Assay kit (V6930) were purchased from Promega (Madison, WI). DMSO (D2650) was purchased from Sigma-Aldrich (Burlington, MA). ECHO-650 acoustic liquid handling system (67492212) and 384-well LDV ECHO source plates (LP-0200) were purchased from Labcyte, Inc (San Jose, CA). Envision Multimode Plate Reader (2104/464466) and ProxiPlate-384 Plus White 384-shallow well microplates (6008280) were purchased from PerkinElmer (Waltham, MA).
1. c-KIT Kinase Chemiluminescence Assay:
IC50 determination. Test compounds were dispersed into a 384-well low volume while ProxiPlate microplate from a DMSO solution using an ECHO 650 acoustic dispenser to generate a 11-point, 3.162-fold dilution, concentration curve starting at 10 μM in duplicate. Kinase Reaction: The kinase assay was based on the recommended protocol by c-KIT Kinase Enzyme System from Promega. […] Kinase activity was measured as increase in luminescence at RT in an Envision plate reader equipped with 560 nm filters and operating in endpoint mode. […]
(In general: ADP-Glo turns the ADP formed in a reaction into a luminescent signal.)

In general, IC50 refers to the concentration needed to halve the response being measured. Consider `Cc1ccc(-c2nc3n(n2)[C@H](c2ccccc2)C[C@@H]3F)cc1NC(=O)c1cnc2ccccn12`, for which the EC50 in assay [1] was more than 1000 nM. For the same compound, in assay [2], the IC50 was 0.1 to 1 µM.
With `Cc1ccc(-c2nc3n(n2)C[C@@H](C(F)(F)F)CC3)cc1NC(=O)c1cnc2ccccn12`, the EC50 in assay [1] was less than 100 nM. In addition, in assay [2], the IC50 was 0.1 to 1 µM.
